One compound from patent publication US20150335677A1, “Argon is a mu opioid receptor antagonist” (priority 2014, published 2015) can be followed below.

Sequences of proteins named here, by UniProt entry; tags and fusion partners are left off.
UniProt Q01827, whole entry: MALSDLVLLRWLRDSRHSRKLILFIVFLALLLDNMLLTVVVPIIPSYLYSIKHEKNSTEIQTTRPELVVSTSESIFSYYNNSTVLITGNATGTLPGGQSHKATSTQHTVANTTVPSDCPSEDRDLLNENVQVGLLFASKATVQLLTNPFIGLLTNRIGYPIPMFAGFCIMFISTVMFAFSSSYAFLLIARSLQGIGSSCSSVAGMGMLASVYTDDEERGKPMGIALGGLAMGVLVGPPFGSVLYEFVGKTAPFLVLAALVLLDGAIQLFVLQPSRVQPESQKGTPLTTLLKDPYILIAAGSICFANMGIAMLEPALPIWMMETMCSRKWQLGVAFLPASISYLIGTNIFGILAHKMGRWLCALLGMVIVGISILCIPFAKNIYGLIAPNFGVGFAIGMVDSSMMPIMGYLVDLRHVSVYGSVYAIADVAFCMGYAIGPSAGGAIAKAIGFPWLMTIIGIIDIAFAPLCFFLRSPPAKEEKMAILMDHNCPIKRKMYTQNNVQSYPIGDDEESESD

The target in this assay is T1, type 2 vesicular monoamine transporter (Rattus norvegicus, UniProt Q01827).
T1 construct: Coronal brain slices (400 μm thickness) including the nucleus accumbens; from tissue; host or cells: rat nucleus accumbens brain slices
As to the kind of experiment: Carrier-mediated and KCl-evoked dopamine release in nucleus accumbens brain slices with amphetamine. Type of assay: cell-based. Here is the method: Rats were killed by decapitation and the brains were carefully removed and placed in ice-cold artificial cerebrospinal fluid (aCSF). Coronal brain slices (400 μm thickness) including the nucleus accumbens (anteriority: −1.2 to +2 mm from the bregma) were cut using a tissue chopper. Before being used, brain slices (n=4 per condition) were allowed to recover at room temperature for 1 hour in oxygenated a CSF. Slices were then placed in a recording chamber (1 mL volume) at 34.5±0.5° C. and superfused at a flow rate of 1 mL/min with aCSF in the presence of amphetamine and air (nitrogen 75 vol %+oxygen 25 vol %) or argon at 75 vol % (with the remainder being oxygen). Control slices were treated with saline solution and air. Carrier-mediated and depolarization-dependent (KCl: 100 mM) dopamine release in the nucleus accumbens were monitored using a polarograph and standard glass-encased nafion-precoated carbon fiber electrodes (David H. N. et al., Biol. Psych., 2006). For each experimental condition (saline+air, amphetamine+air, amphetamine+argon), changes in dopamine release were calculated using each slice as its own control as illustrated in FIG. 1A: changes in carrier-mediated dopamine release were calculated as [B2−B1], [B3−B1], and [B4−B1]; Peak 2 (P2) and Peak 3 (P3) KCl-evoked dopamine responses were calculated as a percentage change from Peak 1 (P1) KCl-evoked dopamine release taken as a 100% value. Therefore, in the experiments with argon, argon was only administered after Peak 1 (P1) KCl-evoked dopamine release had returned to baseline (B2).

[1] abbreviates: amphetamine + air compared to sham slices with saline solution + air.

For the compound `CC(N)Cc1ccccc1` (stereo not drawn) [amphetamine, reference compound], under setting [1], the “Peak 3 (P3) KCl-evoked dopamine release” value is listed as “decrease of Peak 3 (P3) KCl-evoked dopamine release” and the carrier-mediated dopamine release result is listed as “increase in carrier-mediated dopamine release”. In addition, the “effect on Peak 2 KCl-evoked dopamine release” value (amphetamine in the presence of air or argon, KCl 100 mM) was “lack of effect”.
